Laboratory results taken from US9783573B2, “IAP antagonists” (BRISTOL-MYERS SQUIBB COMPANY, priority 2012, dated 2017).

Target: His-BIR2 (124-240/C202A/C213G) (Homo sapiens (Human), UniProt P98170, C202A/C213G)
Details: read-out: XIAP-BIR2 AlphaScreen IC50, Biotinylated SMAC peptide

Row | SMILES | IC50 [nM]
1 | CN[C@@H](C)C(=O)N[C@H](C(=O)N1Cc2cc(C(=O)Nc3ccc(C(=O)N[C@H]4C[C@@H](C(=O)N[C@@H]5CCCc6ccccc65)N(C(=O)[C@@H](NC(=O)[C@H](C)NC)C(C)(C)C)C4)cc3)ccc2C[C@H]1C(=O)N[C@@H]1CCCc2ccccc21)C(C)(C)C [Example 27, (S)-2-((S)-3,3-Dimethyl-2-((S)-2-(methylamino)propanamido)butanoyl)-N^7-(4-(((3S,5S)-1-((S)-3,3-dimethyl-2-((S)-2-(methylamino)propanamido)butanoyl)-5-(((R)-1,2,3,4-tetrahydronaphthalen-1-yl)carbamoyl)pyrrolidin-3-yl)carbamoyl)phenyl)-N^3—((R)-1,2,3,4-tetrahydronaphthalen-1-yl)-1,2,3,4-tetrahydroisoquinoline-3,7-dicarboxamide] | 120
2 | CN[C@@H](C)C(=O)N[C@H](C(=O)N1Cc2cc(C(=O)NC3(C(=O)N[C@H]4C[C@@H](C(=O)N[C@@H]5CCCc6ccccc65)N(C(=O)[C@@H](NC(=O)[C@H](C)NC)C(C)(C)C)C4)CC3)ccc2C[C@H]1C(=O)N[C@@H]1CCCc2ccccc21)C(C)(C)C [Example 28, (S)-2-((S)-3,3-Dimethyl-2-((S)-2-(methylamino)propanamido)butanoyl)-N7-(1-(((3S,5S)-1-((S)-3,3-dimethyl-2-((S)-2-(methylamino)propanamido)butanoyl)-5-(((R)-1,2,3,4-tetrahydronaphthalen-1-yl)carbamoyl)pyrrolidin-3-yl)carbamoyl)cyclopropyl)-N3((R)-1,2,3,4-tetrahydronaphthalen-1-yl)-1,2,3,4-tetrahydroisoquinoline-3,7-dicarboxamide] | 900
3 | CN[C@@H](C)C(=O)N[C@H](C(=O)N1Cc2cc(C(=O)NC(C)(C)C(=O)N[C@H]3C[C@@H](C(=O)N[C@@H]4CCCc5ccccc54)N(C(=O)[C@@H](NC(=O)[C@H](C)NC)C(C)(C)C)C3)ccc2C[C@H]1C(=O)N[C@@H]1CCCc2ccccc21)C(C)(C)C [Example 29, (S)-2-((S)-3,3-Dimethyl-2-((S)-2-(methylamino)propanamido)butanoyl)-N7-(1-(((3S,5S)-1-((S)-3,3-dimethyl-2-((S)-2-(methylamino)propanamido)butanoyl)-5-(((R)-1,2,3,4-tetrahydronaphthalen-1-yl)carbamoyl)pyrrolidin-3-yl)amino)-2-methyl-1-oxopropan-2-yl)-N3-((R)-1,2,3,4-tetrahydronaphthalen-1-yl)-1,2,3,4-tetrahydroisoquinoline-3,7-dicarboxamide] | 180
4 | CN[C@@H](C)C(=O)N[C@H](C(=O)N1CC[C@@H](OCc2ccc(C(=O)N[C@H]3C[C@@H](C(=O)N[C@@H]4CCCc5ccccc54)N(C(=O)[C@@H](NC(=O)[C@H](C)NC)C(C)(C)C)C3)cc2)C[C@H]1C(=O)N[C@@H]1CCCc2ccccc21)C(C)(C)C [Example 30, (2S,4R)-1-((S)-3,3-Dimethyl-2-((S)-2-(methylamino)propanamido)butanoyl)-4-((4-(((3S,5S)-1-((S)-3,3-dimethyl-2-((S)-2-(methylamino)propanamido)butanoyl)-5-(((R)-1,2,3,4-tetrahydronaphthalen-1-yl)carbamoyl)pyrrolidin-3-yl)carbamoyl)benzyl)oxy)-N—((R)-1,2,3,4-tetrahydronaphthalen-1-yl)piperidine-2-carboxamide] | 110
5 | CN[C@@H](C)C(=O)N[C@H](C(=O)N1Cc2cc(NCc3ccc(C(=O)N[C@H]4C[C@@H](C(=O)N[C@@H]5CCCc6ccccc65)N(C(=O)[C@@H](NC(=O)[C@H](C)NC)C(C)(C)C)C4)cc3)ccc2C[C@H]1C(=O)N[C@@H]1CCCc2ccccc21)C(C)(C)C [Example 31, (S)-2-((S)-3,3-Dimethyl-2-((S)-2-(methylamino)propanamido)butanoyl)-7-((4-(((3S,5S)-1-((S)-3,3-dimethyl-2-((S)-2-(methylamino)propanamido)butanoyl)-5-(((R)-1,2,3,4-tetrahydronaphthalen-1-yl)carbamoyl)pyrrolidin-3-yl)carbamoyl)benzyl)amino)-N—((R)-1,2,3,4-tetrahydronaphthalen-1-yl)-1,2,3,4-tetrahydroisoquinoline-3-carboxamide] | 520
